Two compounds from PubChem BioAssay AID504582 (Broad Institute, 2011) can be followed below.

Only a part is listed here, and it is no random draw. Calls of active or inactive are those of the source. Cut-off read from the data, not from the text of the source: active = growth rescue above about 28% (passing the limit was not always enough); inconclusive = no clear call, values can overlap the other calls.

A short description of this test: rescue of yeast from PfHsp40 toxicity, primary screen, S. cerevisiae, ATP luminescence (AID 504582).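 Note: yeast W303a lacking pdr1 and pdr3 grown in galactose medium; growth measured after three days at 30 °C.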 The conditions noted are these: S. cerevisiae expressing PfHsp40, growth rescue, at 12.5 µM, hits give high values.
In the case of `CCC(=O)N(c1ccccc1)C1(COC)CCN(CCc2cccs2)CC1`, the growth rescue was inactive: -0.336%. In the case of `CCC(=O)N(c1ccccc1)C1(COC)CCN(CCn2nnn(CC)c2=O)CC1`, the growth rescue is inactive: 0.728%.
